US20180153850A1, “COMPOSITIONS AND METHODS FOR TREATMENT OF CANCER” (The Regents of the University of California, priority 2015, published 2018)

Chains of the proteins cited; added tags and fusions are not shown.
UniProt P08183, whole entry: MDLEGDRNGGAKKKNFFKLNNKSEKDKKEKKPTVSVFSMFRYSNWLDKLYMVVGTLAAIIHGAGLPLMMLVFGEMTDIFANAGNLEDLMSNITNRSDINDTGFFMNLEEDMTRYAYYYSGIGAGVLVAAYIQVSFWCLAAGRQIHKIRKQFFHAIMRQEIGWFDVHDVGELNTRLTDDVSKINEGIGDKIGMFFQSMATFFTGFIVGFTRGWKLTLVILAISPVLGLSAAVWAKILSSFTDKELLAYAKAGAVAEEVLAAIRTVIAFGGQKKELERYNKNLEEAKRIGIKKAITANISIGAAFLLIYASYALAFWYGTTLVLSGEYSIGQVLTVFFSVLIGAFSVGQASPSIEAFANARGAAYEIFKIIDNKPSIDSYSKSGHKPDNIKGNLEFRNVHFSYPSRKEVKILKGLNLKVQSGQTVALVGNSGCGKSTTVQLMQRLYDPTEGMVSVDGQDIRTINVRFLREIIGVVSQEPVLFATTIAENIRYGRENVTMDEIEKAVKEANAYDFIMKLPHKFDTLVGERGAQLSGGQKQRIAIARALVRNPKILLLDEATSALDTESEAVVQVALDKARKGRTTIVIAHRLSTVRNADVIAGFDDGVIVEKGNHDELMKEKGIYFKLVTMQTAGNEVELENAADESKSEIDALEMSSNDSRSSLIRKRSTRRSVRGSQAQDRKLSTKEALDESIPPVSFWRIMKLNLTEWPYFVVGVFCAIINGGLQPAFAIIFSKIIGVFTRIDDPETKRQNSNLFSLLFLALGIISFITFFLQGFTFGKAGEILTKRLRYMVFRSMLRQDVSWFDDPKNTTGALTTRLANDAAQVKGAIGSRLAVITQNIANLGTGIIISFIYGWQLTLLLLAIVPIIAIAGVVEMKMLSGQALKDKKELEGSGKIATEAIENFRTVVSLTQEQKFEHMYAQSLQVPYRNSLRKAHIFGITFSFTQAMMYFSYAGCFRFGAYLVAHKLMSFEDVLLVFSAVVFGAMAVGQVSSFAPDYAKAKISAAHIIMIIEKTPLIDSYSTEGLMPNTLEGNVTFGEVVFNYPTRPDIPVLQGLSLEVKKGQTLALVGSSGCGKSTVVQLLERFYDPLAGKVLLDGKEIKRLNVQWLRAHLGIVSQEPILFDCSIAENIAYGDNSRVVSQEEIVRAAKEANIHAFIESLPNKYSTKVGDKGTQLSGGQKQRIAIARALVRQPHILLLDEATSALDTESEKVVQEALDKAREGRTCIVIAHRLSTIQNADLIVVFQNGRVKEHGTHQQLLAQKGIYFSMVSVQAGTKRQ

Target: recombinant human ABCB1 membranes (Homo sapiens, UniProt P08183)
Conditions: 50 μM

`CC(=O)O[C@@]12CO[C@@H]1C[C@H](O)[C@@]1(C)C(=O)[C@H](O)C3=C(C)[C@@H](OC(=O)[C@H](O)[C@@H](NC(=O)OC(C)(C)C)c4ccccc4)C[C@@](O)([C@@H](OC(=O)c4ccccc4)[C@H]21)C3(C)C` [docetaxel] was tested, and the “stimulation of ABCB1 ATPase activity” value was ~150%.
